The source of these data is US11555029B2, “PD-1/PD-L1 inhibitors” (Gilead Sciences, Inc., priority 2018, dated 2023).

Like-named read-outs stand apart in the source and are kept apart here.

The conditions of the data set: all doses, entire study.

Turning to `COc1nc(-c2cccc(-c3cccc(-c4cnc(CNC[C@@H]5CCC(=O)N5)c(OC)n4)c3Cl)c2Cl)cnc1CNC[C@@H]1CCC(=O)N1` [compound 139], for the setting “listed as Compound 139”, the “effect on body weight” value is recorded as “no effect” and the tolerability entry is recorded as “well tolerated”. Further, under “listed as compound 139”, the “effect on body weight” value is listed as “no treatment-related effect” and the tolerability entry was “well-tolerated”.
